The series is described as follows: Plasma concentrations and pharmacokinetics of MOD-6031 and its hydrolyzed products by LC-MS/MS. The series is classed as in vivo, ob/ob mice. As to conditions: for Plasma concentration 24 hours following single dose (Day 2) / Plasma concentration 24 hours following last injection of repeat dosing (Day 33): b334 gives μg/ml.

Turning to Oxyntomodulin [OXM], the “Plasma concentration 24 hours following single dose (Day 2)” value by setting is: (MOD-6031 1000 nmol/kg (PEG-FMS dose incl. impurities 1515)) 0.07; (MOD-6031 3000 nmol/kg (PEG-FMS dose incl. impurities 4545)) 0.23; (MOD-6031 6000 nmol/kg (PEG-FMS dose incl. impurities 9090)) 0.38. Also, the “Plasma concentration 24 hours following last injection of repeat dosing (Day 33)” value runs as follows: (MOD-6031 1000 nmol/kg twice a week (PEG-FMS 1515)) 0.09; (MOD-6031 3000 nmol/kg twice a week (PEG-FMS 4545)) 0.23; (MOD-6031 6000 nmol/kg twice a week (PEG-FMS 9090)) 0.37. For the setting “top dose of MOD-6031 (6000 nmol/kg) twice a week, terminal blood”, the “actual concentration at 24 h post last injection (Day 33)” value came to 0.37 µg/mL.

The values above are taken from patent US9821070B2 (OPKO Biologics Ltd., priority 2012, dated 2017).
